Screening data deposited in PubChem BioAssay by several laboratories.
ERp5 inh = blocks human ERp5 reductase activity on insulin. Q15084. ERp5 insulin aggregation, absorbance 650 nm, 90 min. inhibition, % at 9.99 µM. actives 0.05% (n = 350,000);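 active = mean replicate inhibition above about 25%, with every replicate also reaching it, limit read from the data, passing the limit was not always enough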
NR1D1 modulator = modulates human Rev-erb alpha binding to DNA | P20393 | Rev-erbα–FITC-DNA binding, fluorescence polarization, 90 min | actives 0.79% (n = 370,000) | activity, % at 10 µM;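 active = activity above about 14%, limit read from the data; passing the limit was not always enough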;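 also: 0% = DMSO wells with 35 nM protein and 100% = DMSO wells with 750 nM protein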
UUG fidelity = alters start codon recognition fidelity in yeast. S. cerevisiae UUG-firefly luciferase reporter, luminescence/redox ratio. 350,000 tested, 0.13% active. activity score, % at 18.7 µM. AID 602363;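 active means replicate mean at a twofold rise or more, about +100% in these data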;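 further: firefly luciferase made from a UUG start codon reports start codon fidelity; reporter light over untreated wells divided by growth signal over untreated wells; some hits fall short of that in this replicate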
INS-1E GSIS act = GLuc luminescence reporter in INS-1E cells, primary screen for activators of glucose-dependent secretion of insulin | INS-1E GLuc reporter insulin secretion, 2-3 h | activation, % at 16.6 µM | actives 0.61% (n = 370,000) | AID 743287;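 active = lowest replicate activation of at least 40%, so every replicate reaches that level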;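 also: 0% = median of neutral control wells and 100% = median of IBMX positive control wells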
SMARCA2 activ = activators of SMARCA2 function. MG213 cells, MMTV-luciferase reporter, dexamethasone, overnight. activation, % at 9.1 µM. actives 1% (n = 370,000). AID 652017; in the data active = activation above about 7.8%;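 also: 0% = vehicle wells and 100% = reference activator wells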
PDI turbidity = blocks human protein disulfide isomerase activity; P07237; PDI insulin aggregation turbidity, A650, 90 min; inhibition, % at 10 µM; actives 0.052% (n = 350,000); AID 588391;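 active = mean inhibition across replicates of 30% or more, whatever share of single replicates reach that level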
Rev-erbA confirm = Rev-erb alpha (human) modulation, hit confirmation; shares compounds with NR1D1 modulator; Rev-erb alpha FITC-DNA binding, fluorescence polarization, 90 min; activation, % at 25 µM; actives 61% (n = 3,000); AID 1259319;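 active = activation at or above a set limit, or at least 3 SD above the negative control mean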;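 also: 0% = 35 nM protein with DMSO and 100% = 750 nM protein high control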
RORg counter = counter-screen for Rev-erb alpha modulators: RORgamma DNA binding; AID 1259320; shares compounds with NR1D1 modulator; IC50, µM; actives 8% (n = 910); purified RORgamma protein-FITC-DNA binding, fluorescence polarization;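 active = Compounds whose fitted half-maximal concentration for disrupting protein-DNA binding is below 10 micromolar; the record names Rev-erb in its text, so the target is in doubt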
Numbers without * were called inactive; i = inactive; . = no result given. Only some compounds are listed: those with a hit (about 2.1% of all), similar ones and a draw of the others.

SMILES | ERp5 inh | NR1D1 modulator | UUG fidelity | INS-1E GSIS act | SMARCA2 activ | PDI turbidity | Rev-erbA confirm | others
CC1Cc2ccccc2N1C(=O)COC(=O)c1cc(Br)ccc1O (stereo not drawn) | 0 | 35* | . | -17 | -2 | 2 | 25*
CC1Cc2ccccc2N1C(=O)COC(=O)c1cccc(Br)c1 (stereo not drawn) | 3 | 0 | 3 | -24 | -3 | 6 | .
Nc1nccnc1C(=O)OCC(=O)N1CCN(S(=O)(=O)c2ccc(Cl)cc2)CC1 | -3 | -1 | . | 4 | 0 | -1 | .
COc1cccc(-c2cnc3c(c2)C(=O)N([C@@H](C)CO)C[C@H](C)[C@@H](CN(C)Cc2ccncc2)O3)c1 | 0 | . | -10 | 10 | . | . | .
Cc1ccc2c(c1)c(/C=C/c1cc[n+](C)cc1)c(C)n2C | 9 | 280* | 3 | -60 | -1 | 0 | 224* | RORg counter=i
Cc1ccc2[nH]c(C)c(/C=C/c3cc[n+](C)cc3)c2c1 | 3 | 235* | -1 | -31 | -6 | -2 | 182* | RORg counter=>40
CC(=O)c1cnc2cc(-c3ccc(Cl)cc3)nn2c1C | . | 28* | 0 | 35 | 5 | 5 | 10
Cc1cc(C)n2nc(-c3ccc(Br)cc3)cc2n1 | 1 | 27* | -25 | 0 | 2 | -2 | 3
Cc1cc(C)n2nc(-c3ccc(Cl)cc3)cc2n1 | 4 | 65* | -17 | -1 | 6 | 12 | 52* | RORg counter=>40
CO[C@H]1CN(C)C(=O)c2ccc(NS(=O)(=O)c3cccc(C)c3)cc2OC[C@@H](C)NC[C@@H]1C | 0 | . | 5 | 11 | . | . | .
CNC[C@H]1Oc2c(NC(=O)NC(C)C)cccc2C(=O)N([C@@H](C)CO)C[C@H]1C | -1 | . | . | 13 | . | . | .
COc1ccc2c3c([nH]c2c1)[C@@H](CO)N(Cc1ccc(Cl)cc1)CC31CN(Cc2ccccc2)C1 | . | . | . | -30 | . | . | .
Cc1cc(Br)c2nc(-c3ccc(F)cc3)c(Cc3cccc(Cl)c3)n2c1 | -11 | 29* | . | -15 | -4 | . | 13*
Clc1cccc(Cc2c(-c3cccc(Br)c3)nc3ccc(Br)cn23)c1 | 2 | 20 | -14 | -13 | 0 | . | .
Cc1ccc(-c2nc3ccc(Br)cn3c2Cc2cccc(Cl)c2)cc1 | 4 | 19* | -18 | -22 | 3 | . | 10
Clc1cccc(-c2nc3ccc(Br)cn3c2Cc2ccccc2)c1 | 0 | -4 | 28 | 5 | 4 | . | .
Fc1ccc(-c2nc3c4ccccc4ccn3c2Cc2cccc(Cl)c2)cc1 | 0 | -1 | -15 | 0 | 1 | . | .
Clc1ccc(-c2nc3ccc(Br)cn3c2Cc2cccc(Cl)c2)cc1 | 2 | 25* | -11 | -15 | 3 | . | 19*
Clc1cccc(Cc2c(-c3cccc(Cl)c3)nc3ccc(Br)cn23)c1 | 7 | 26* | -16 | -35 | 6 | . | 19*
COc1ccccc1NC(=O)N1C[C@@H]2[C@H](c3ccccc31)[C@H](CO)N2Cc1ccccc1F | 1 | . | -14 | 1 | . | . | .
CCc1nnc2sc(-c3ccc(NC(=O)c4ccc5c(c4)OCCO5)cc3)nn12 | . | 92* | -10 | . | 0 | 12 | 58*
Cc1cccn2c(=O)c3cc(C(=O)NC4CCS(=O)(=O)C4)n(Cc4ccccc4)c3nc12 (stereo not drawn) | 1 | 44* | -3 | 4 | 2 | -2 | 14
C[C@H]1CN([C@@H](C)CO)C(=O)Cc2cc(NS(C)(=O)=O)ccc2O[C@@H]1CN(C)S(=O)(=O)c1cn(C)cn1 | . | . | -12 | 12 | . | . | .
CO[C@@H]1CN(C)C(=O)c2cc(NC(C)=O)ccc2OC[C@@H](C)N(CCC(F)(F)F)C[C@@H]1C | 1 | . | 6 | 6 | . | . | .
CCn1c(=O)c(C(=O)Nc2ccccc2S(N)(=O)=O)c(O)c2ccccc21 | . | 20* | -35 | . | 5 | 27 | 17
C[C@H]1CN([C@@H](C)CO)S(=O)(=O)c2ccc(C#Cc3ccccc3F)cc2O[C@@H]1CN(C)CC1CCOCC1 | 3 | . | 4 | -12 | . | . | .
